Data taken from US10328003B2, “Solubilizing agents for active or functional organic compounds” (ISP INVESTMENTS LLC, priority 2015, dated 2019).

Protocol: Different samples of the current solubilizing compound cycloalkyl toluate was combined with available sunscreens Escalol S, avobenzone and oxybenzone at 25° C. […] Solubility was checked for cyclohexyl ester in various sunscreen actives such as bemotrizinol, ethylhexyl triazone, avobenzone & benzophenone-3 in comparison to phenethyl benzoate.

In the case of “C12-15 alkyl benzoate [reference compound]”, the “Solubility @ 25° C. Avobenzone” value was 12, the “Solubility @ 25° C. Escalol S” value was 13 and the “Solubility @ 25° C. Oxybenzone” value was 15. The “Solubility percentages of sunscreen active in the solubilizer” value was 4-15%.
